From paper PMC6105598, “Targeting protein-protein interactions for therapeutic discovery via FRET-based high-throughput screening in living cells” (Scientific Reports, 2018)
“And” between values parts separate entries of the source, which are not always exact repeats. Equal values may be shown once.

By UniProt entry, the sequences of proteins in these tests, tags left out. Residues count along the entry.
UniProt P16615, 1-997 isoform P16615-2, stated change not applied: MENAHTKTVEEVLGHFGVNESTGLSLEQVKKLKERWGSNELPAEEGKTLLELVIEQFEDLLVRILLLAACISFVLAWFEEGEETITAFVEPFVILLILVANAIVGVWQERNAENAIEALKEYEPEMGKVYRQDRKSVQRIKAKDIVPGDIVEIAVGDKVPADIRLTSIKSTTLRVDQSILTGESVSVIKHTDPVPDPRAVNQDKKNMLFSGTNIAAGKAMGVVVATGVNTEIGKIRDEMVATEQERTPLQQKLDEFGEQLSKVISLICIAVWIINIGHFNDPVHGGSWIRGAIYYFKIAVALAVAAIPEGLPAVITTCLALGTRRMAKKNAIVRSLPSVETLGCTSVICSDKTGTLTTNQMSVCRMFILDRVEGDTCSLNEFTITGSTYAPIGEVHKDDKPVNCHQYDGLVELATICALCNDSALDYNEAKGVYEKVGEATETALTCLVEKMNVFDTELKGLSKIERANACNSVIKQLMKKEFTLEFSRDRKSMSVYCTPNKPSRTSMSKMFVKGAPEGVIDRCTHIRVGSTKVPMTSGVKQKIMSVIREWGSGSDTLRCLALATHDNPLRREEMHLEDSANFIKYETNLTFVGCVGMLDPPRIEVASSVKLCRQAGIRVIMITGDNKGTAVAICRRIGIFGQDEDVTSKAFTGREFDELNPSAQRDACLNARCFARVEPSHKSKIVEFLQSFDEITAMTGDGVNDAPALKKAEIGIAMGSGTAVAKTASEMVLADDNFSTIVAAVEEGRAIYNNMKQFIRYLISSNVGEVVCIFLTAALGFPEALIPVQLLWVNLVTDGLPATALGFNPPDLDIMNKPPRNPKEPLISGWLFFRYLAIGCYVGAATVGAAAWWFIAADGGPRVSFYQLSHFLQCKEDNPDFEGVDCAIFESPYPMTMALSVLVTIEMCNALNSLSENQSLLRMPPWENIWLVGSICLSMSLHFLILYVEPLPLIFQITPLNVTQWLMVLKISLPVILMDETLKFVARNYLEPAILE
UniProt P26678, whole entry C36A/C41F/C46A: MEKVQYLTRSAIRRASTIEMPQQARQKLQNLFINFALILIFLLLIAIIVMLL
UniProt P11607, 1-997 isoform P11607-2: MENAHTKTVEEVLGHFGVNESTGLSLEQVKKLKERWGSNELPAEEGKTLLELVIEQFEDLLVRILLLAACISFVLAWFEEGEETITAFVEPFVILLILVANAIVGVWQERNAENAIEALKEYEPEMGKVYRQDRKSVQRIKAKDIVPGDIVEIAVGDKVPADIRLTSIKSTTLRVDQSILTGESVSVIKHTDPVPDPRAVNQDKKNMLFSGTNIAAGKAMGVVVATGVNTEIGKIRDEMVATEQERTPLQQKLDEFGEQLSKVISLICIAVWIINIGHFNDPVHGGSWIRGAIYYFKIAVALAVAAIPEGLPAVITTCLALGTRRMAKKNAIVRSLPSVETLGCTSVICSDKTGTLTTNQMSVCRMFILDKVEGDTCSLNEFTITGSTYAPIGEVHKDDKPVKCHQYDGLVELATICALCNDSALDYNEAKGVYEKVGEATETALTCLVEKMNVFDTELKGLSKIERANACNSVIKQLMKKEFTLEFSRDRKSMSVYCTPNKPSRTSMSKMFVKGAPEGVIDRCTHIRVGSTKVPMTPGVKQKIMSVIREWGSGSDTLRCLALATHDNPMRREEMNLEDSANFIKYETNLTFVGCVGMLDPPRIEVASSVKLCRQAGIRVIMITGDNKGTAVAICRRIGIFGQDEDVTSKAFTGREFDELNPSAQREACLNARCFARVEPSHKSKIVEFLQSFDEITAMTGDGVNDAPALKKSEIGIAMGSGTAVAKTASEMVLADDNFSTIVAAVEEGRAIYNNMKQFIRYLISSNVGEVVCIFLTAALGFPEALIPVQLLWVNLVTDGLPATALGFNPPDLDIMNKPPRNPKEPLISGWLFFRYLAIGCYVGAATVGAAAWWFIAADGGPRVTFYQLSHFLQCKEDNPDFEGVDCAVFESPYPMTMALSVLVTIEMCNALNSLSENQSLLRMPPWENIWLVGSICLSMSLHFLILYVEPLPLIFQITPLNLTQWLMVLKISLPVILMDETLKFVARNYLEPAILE

Tests used:
[1] = biological target: SERCA2a-PLB complex (GFP-SERCA2a / RFP-PLB in HEK293 cells) (Homo sapiens, UniProt P16615+P26678, C36A/C41F/C46A); assay: SERCA2a-PLB TR-FRET (fluorescence lifetime) biosensor assay in living cells; format: cell-based; parameters: expressed in transfected cells; host or cells: HEK293
[2] = biological target: T1, cardiac SR (SERCA2a + PLB) (Sus scrofa, UniProt P11607); assay: Ca-ATPase activity of cardiac SR (CSR), NADH-linked enzyme-coupled assay; format: biochemical, pig; parameters: pKCa @30 µM: unit not given here
T1 construct: Cardiac SR membrane vesicles were isolated from ventricular myocardium obtained from fresh pig hearts; from tissue; host or cells: pig ventricular myocardium, SR membrane vesicles
Experimental: To characterize the relationship between the structural readout (FRET) and the functional effects, in vitro Ca-ATPase assays were performed on cardiac SR (which contains both SERCA2a and PLB). […] To further examine the functional effects of Hit compounds, Ca-ATPase assays were performed on both skeletal SR (SERCA1a only) and cardiac SR (SERCA2a + PLB) at a series of Ca concentrations ranging from pCa 5 to 8.
Skeletal muscle SR membrane vesicles were isolated from longissimus dorsi obtained from New Zealand white rabbits, as previously described. Cardiac SR membrane vesicles were isolated from ventricular myocardium obtained from fresh pig hearts. All experimental protocols were reviewed and approved by University of Minnesota’s Institutional Animal Care and Use Committee, an Association for Assessment and Accreditation of Laboratory Animal Care institution.
An enzyme-coupled, NADH-linked ATPase assay was used to measure SERCA ATPase activity in 96-well microplates. Each well contained 0.8 μg (skeletal) or 2 μg (cardiac) of SR vesicles adjusted for the different SERCA contents of skeletal and cardiac SR, 50 mM MOPS (pH 7.0), 100 mM KCl, 5 mM MgCl2, 1 mM EGTA, 0.2 mM NADH, 1 mM phosphoenol pyruvate, 10 IU/mL of pyruvate kinase, 10 IU/mL of lactate dehydrogenase, 3.5 μg/mL of the Ca ionophore A23187, and CaCl2 added to set free [Ca] to the desired values. The assay was started upon the addition of ATP at a final concentration of 5 mM and read in a SpectraMax Plus microplate spectrophotometer rom Molecular Devices (Sunnyvale, CA).

Q: Which EC50 [1] does the source give for Ivermectin here?
A: Its EC50 is 5.9 µM.

Q: And the “direction of FRET change of the SERCA2a-PLB biosensor” value [1]?
A: The value was “decrease in FRET”.

Q: What about the ΔFLT [1] of the same substance?
A: Its ΔFLT is 53 ps and 56 ps.

Q: And the EC50 [2]?
A: Its EC50 is 6.2 µM.

Q: What about the “Vmax @ 30 µM” value [2] of the same substance?
A: The value was 0.15 i.u.

Q: And the “decrease of Vmax” value [2]?
A: The value was 78%.

Q: What about the “pKCa @30 µM” value [2] of the same substance?
A: The value was 6.10.

Q: And the “ΔVmax @ 30 µM” value [2]?
A: The value was -77.9%.
